Antibody variant affinities, Ab-91 heavy chain, assay 2

Target: peptide PDVDLGDISGINAS, taken from heptad repeat 2 (HR2) of SARS-CoV-2 spike.

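In library AAYL51, one, two or three CDR residues were substituted; doubles and triples were drawn at random. Affinity was read by AlphaSeq, a pooled yeast mating assay with surface-displayed partners. After mating in shaken culture at 30 °C for 16 h, diploids were selected and their barcode pairs sequenced. A regression on co-assayed BCL2-family reference pairs converts the normalised counts of each replicate to an apparent Kd. The assay was run in three technical replicates.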

Ab-91 is the parent antibody, in scFv form: VL, then a (GGGGS)3 linker, then VH. The light chain is unchanged in all variants.
VL: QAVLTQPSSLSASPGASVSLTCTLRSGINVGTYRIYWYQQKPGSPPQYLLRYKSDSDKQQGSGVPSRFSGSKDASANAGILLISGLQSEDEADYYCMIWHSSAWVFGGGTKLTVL
VH: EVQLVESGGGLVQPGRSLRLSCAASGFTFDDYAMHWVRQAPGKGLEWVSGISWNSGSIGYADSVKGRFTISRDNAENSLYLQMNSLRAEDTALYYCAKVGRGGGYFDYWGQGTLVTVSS

Positions count from residue 1 of the parent VH; A33D puts D in place of A. This list gathers variants with a substitution at F106 (VH, numbered from residue 1). Each Kd is an estimate from the mating assay, the geometric mean of the replicates in which the pair was seen; lower is stronger. "no signal" means that the variant was in the library but no mating with the target was seen in any replicate; the authors take this as a sign of poor binding, and no number exists. Three control strains display no target. For library AAYL51, 21% of the pairings with them gave a signal, with a median of 34 µM and one signal in twenty below 1.8 µM, so weak values seen in few replicates may be background. In this assay the parent's reference entry averaged 72 nM; its copy inside this library read 7.5 nM.

The variant A33D S57Y F106H showed no signal (0 of 3 replicates). For I51G S55M F106P, the assay gave 4.4 µM (1 of 3 replicates). With I51N W53G F106Q the result was no signal (0 of 3 replicates). With F27H A33I F106W the result was 110 µM (1 of 3 replicates). The variant S52D F106K showed 380 nM (3 of 3 replicates).

The variant S57C F106Q showed 41 µM (2 of 3 replicates). For R101E F106L, the assay gave 190 µM (1 of 3 replicates). With F27S V64D F106K the result was 220 µM (2 of 3 replicates). The variant G100Q F106H D107T showed 4.0 µM (3 of 3 replicates). For F106C D107Q, the assay gave 6.7 nM (3 of 3 replicates).

With G26H T28M F106D the result was no signal (0 of 3 replicates). The variant Y32D F106I gave 17 µM (1 of 3 replicates). The variant D62C F106R Y108D showed 260 µM (1 of 3 replicates). With D62W V64T F106M the result was no signal (0 of 3 replicates). The variant A33I F106R Y108H gave no signal (0 of 3 replicates).

For V99I G102N F106L, the assay gave no signal (0 of 3 replicates). For D62E F106N D107M, the assay gave 220 µM (2 of 3 replicates). With T28M A33G F106M the result was 14 nM (3 of 3 replicates). With N54H R101H F106Q the result was no signal (0 of 3 replicates). The variant I51N G103W F106V showed 850 µM (1 of 3 replicates).

For I58H F106E, the assay gave no signal (0 of 3 replicates). The variant I51K G104H F106N showed no signal (0 of 3 replicates). With A33T G104W F106N the result was no signal (0 of 3 replicates). With N54M Y60S F106R the result was 22 µM (2 of 3 replicates). The variant A33L Y60G F106Y showed 18 µM (1 of 3 replicates).

The variant I58V V64N F106L showed 3.5 µM (3 of 3 replicates). The variant S55H S63N F106G gave 2.8 µM (3 of 3 replicates). The variant K65G F106T Y108V gave 8.8 nM (3 of 3 replicates). The variant D30K G100Q F106W showed 33 nM (3 of 3 replicates). With S55M Y60H F106I the result was no signal (0 of 3 replicates).

The variant F29H A33L F106P showed 620 µM (3 of 3 replicates). For D31C G103T F106S, the assay gave 5.8 µM (1 of 3 replicates). For F106R, the assay gave 78 µM (3 of 3 replicates). For Y60L G102D F106W, the assay gave 300 nM (3 of 3 replicates). The variant N54T V99E F106G showed no signal (0 of 3 replicates).

The variant F29Q F106P showed 460 µM (2 of 3 replicates). For G50K G59Q F106T, the assay gave 86 µM (2 of 3 replicates). For S55C R101H F106I, the assay gave 300 µM (1 of 3 replicates). The variant S52I I58V F106N showed 17 µM (1 of 3 replicates). With V99I F106V the result was 1.7 µM (3 of 3 replicates).

The variant G26I G59N F106M gave no signal (0 of 3 replicates). With F29P G59Q F106S the result was no signal (0 of 3 replicates).

The first 2 entries again:

changes	apparent Kd	seen in
A33D S57Y F106H	no signal	0 of 3
I51G S55M F106P	4.4 µM	1 of 3

Source: Engelhart et al. 2022 (doi:10.1038/s41597-022-01779-4), MIT Lincoln Laboratory and A-Alpha Bio; data file from the FLAb repository.